Data taken from patent US6552167B1, “Polyamide chains of precise length” (Gryphon Therapeutics, Inc., priority 1998, dated 2003).

Legend:
Details in all cases: 4 hours; control incubation, same conditions
[1] = system: chymotrypsin; test: Polyamide stability to protease digestion, HPLC analysis (chymotrypsin)
Description: (§1) The compounds produced in Examples 8 and 9 were separately dissolved at 1 mg/ml in a 1% ammonium bicarbonate solution. In separate tubes, these solutions were treated with trypsin, chymotrypsin and elastase (enzyme:substrate ratio 1:100, 37° C.). Aliquots (20 μl) were withdrawn at intervals and analyzed by HPLC.

[2] = system: trypsin; test: Polyamide stability to protease digestion, HPLC analysis (trypsin)
Description: as §1

[3] = system: elastase; test: Polyamide stability to protease digestion, HPLC analysis (elastase)
Description: as §1

insulin
extensive digestion: digestion by chymotrypsin [1] | digestion by trypsin [2] | digestion by elastase [3]
